Patent publication US11603518B2, “Dorsally-derived oligodendrocyte progenitor cells from human pluripotent stem cells” (priority 2019, dated 2023)

Tested on: neural progenitors
Assay: Differentiated cell yield in presence vs. absence of SHH signaling activator
Details: effect of removal of the SHH signaling activator from the differentiation process, FIG. 2A

Question: For `c1ccc2c(Oc3nc(Nc4ccc(N5CCOCC5)cc4)c4ncn(C5CCCCC5)c4n3)cccc2c1` [Purmorphamine], which “Step yield of cells between Days 7 and 14” value is on record?
Answer: consistently lead to an increase of step yield
